Measurements from patent EP0730590B1, “ISOXAZOLINE AND ISOXAZOLE FIBRINOGEN RECEPTOR ANTAGONISTS” (Dupont Pharmaceuticals Company, priority 1993, dated 1995).

By UniProt entry, the sequences of proteins in these tests, tags left out. Chains listed by the source or under a name are the forms on record and can include a tag or linker. Residues count along the entry.
UniProt P05106, 27-788 limits assumed: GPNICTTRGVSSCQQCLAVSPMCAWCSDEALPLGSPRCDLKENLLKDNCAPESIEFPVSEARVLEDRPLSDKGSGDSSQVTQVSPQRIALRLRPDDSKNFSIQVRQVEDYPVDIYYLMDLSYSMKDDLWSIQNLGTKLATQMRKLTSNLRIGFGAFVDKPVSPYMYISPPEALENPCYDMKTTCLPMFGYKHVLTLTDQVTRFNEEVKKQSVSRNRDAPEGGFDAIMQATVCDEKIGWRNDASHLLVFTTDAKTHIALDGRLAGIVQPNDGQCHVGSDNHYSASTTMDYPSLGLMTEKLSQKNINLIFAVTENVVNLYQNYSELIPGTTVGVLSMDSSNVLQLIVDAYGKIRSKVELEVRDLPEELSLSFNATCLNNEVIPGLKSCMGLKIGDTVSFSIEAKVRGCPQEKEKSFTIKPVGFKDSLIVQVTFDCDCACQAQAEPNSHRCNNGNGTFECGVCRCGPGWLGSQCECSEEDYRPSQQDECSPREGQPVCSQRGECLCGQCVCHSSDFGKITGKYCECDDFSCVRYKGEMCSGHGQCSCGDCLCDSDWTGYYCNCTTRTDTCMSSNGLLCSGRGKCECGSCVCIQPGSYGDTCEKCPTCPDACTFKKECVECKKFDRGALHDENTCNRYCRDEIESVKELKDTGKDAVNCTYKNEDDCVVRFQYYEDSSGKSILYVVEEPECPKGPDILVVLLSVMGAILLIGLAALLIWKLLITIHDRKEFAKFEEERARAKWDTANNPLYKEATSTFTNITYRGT
UniProt P08514, with tags, fused parts or gaps limits assumed: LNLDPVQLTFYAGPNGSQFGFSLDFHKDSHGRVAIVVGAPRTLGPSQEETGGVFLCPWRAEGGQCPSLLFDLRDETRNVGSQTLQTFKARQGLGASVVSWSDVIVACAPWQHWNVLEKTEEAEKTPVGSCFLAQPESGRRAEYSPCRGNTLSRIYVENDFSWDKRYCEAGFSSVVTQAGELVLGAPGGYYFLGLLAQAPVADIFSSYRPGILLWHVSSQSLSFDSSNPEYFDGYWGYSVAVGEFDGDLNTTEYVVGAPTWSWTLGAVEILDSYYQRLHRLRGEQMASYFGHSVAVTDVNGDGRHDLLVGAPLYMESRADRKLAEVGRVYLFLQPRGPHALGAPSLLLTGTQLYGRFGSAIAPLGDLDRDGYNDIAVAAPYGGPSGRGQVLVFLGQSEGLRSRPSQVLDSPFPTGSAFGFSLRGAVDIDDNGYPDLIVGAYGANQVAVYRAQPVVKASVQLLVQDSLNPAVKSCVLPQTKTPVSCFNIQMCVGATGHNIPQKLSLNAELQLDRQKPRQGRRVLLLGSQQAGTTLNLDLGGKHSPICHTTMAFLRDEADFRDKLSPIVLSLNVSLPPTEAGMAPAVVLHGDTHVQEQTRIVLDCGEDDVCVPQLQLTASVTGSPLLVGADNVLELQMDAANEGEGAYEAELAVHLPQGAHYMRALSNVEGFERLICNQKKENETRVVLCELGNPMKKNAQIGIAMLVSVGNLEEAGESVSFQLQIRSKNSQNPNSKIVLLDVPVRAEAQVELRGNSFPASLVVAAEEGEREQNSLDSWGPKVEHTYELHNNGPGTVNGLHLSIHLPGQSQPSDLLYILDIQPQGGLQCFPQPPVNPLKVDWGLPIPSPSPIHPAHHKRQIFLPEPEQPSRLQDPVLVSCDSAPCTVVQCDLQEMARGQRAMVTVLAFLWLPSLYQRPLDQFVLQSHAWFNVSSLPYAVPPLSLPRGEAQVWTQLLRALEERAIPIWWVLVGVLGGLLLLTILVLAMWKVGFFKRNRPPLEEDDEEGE

How the values were obtained:
[1] = biological target: human platelet rich plasma (Homo sapiens, UniProt P05106+P08514); assay: Platelet Aggregation Assay, ester prodrugs preincubated with porcine liver esterase; conditions: read-out: Platelet Aggregation Assay IC50 (with esterase), platelet rich plasma (PRP)
[2] = biological target: agonist-induced platelet aggregation (Homo sapiens, UniProt P05106+P08514); assay: Platelet Aggregation Assay in platelet-rich plasma (PRP); assay type: cell-based; conditions: read-out: Platelet Aggregation Assay IC50 (without esterase)

IC50 [1]	Compound	IC50 [2]
< 10 µM	COC(=O)CC(CN(C)C)NC(=O)CC1CC(c2ccc(C(=N)N)cc2)=NO1 (single isomer, unassigned)	
< 10 µM	COC(=O)[C@H](CNC(=O)CC1CC(c2ccc(C(=N)N)cc2)=NO1)NS(=O)(=O)c1cccc(C)c1 (single isomer, unassigned)	
	N=C(N)c1ccc(C2=NOC(CC(=O)NC(CCCc3ccccc3)CC(=O)O)C2)cc1 (single isomer, unassigned)	< 10 µM
	N=C(N)c1ccc(C2=NOC(CC(=O)NC(CCc3cccnc3)CC(=O)O)C2)cc1 (single isomer, unassigned)	< 10 µM
